The values below come from patent US20240360179A1, “STAPLED PEPTIDES AND METHODS THEREOF” (FOG PHARMACEUTICALS, INC., priority 2021, published 2024).

The chains behind the UniProt entries cited, without tags or fusion partners.
UniProt P35222, whole entry: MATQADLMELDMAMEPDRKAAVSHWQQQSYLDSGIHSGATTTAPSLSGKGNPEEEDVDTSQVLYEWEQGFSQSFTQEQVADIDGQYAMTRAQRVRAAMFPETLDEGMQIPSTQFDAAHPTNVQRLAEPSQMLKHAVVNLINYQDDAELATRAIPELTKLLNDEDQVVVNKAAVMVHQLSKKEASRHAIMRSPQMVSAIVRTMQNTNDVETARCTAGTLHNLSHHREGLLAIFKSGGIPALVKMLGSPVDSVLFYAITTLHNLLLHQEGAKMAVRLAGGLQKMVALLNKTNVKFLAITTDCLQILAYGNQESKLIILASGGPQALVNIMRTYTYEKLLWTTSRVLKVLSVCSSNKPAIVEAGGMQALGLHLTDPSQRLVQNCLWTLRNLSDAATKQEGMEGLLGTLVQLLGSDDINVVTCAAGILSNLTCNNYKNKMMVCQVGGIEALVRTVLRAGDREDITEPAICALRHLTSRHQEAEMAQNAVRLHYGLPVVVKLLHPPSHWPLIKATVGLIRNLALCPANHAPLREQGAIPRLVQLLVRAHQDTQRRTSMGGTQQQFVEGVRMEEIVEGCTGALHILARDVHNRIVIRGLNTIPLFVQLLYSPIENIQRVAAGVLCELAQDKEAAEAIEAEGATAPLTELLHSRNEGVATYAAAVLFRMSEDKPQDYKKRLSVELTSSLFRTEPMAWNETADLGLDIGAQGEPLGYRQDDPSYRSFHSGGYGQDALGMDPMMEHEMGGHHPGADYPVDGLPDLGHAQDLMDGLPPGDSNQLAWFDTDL

Molecules are shown by their SMILES. Where only a bound is given, the exact number is not on record here.

This assay has as its target T1, full-length B-Catenin (Uniprot ID P35222) (Homo sapiens, UniProt P35222).
T1 construct: 10 nM full-length B-Catenin (Uniprot ID P35222)
Kind of assay: biochemical. The format is binding. The note with it: beta-Catenin FP IC50 (nM), competition fluorescence polarization.
`CC(=O)N1CCC[C@]12CCCCCCC1(CCCCCCCCOC(=O)N3CC[C@@]4(C3)NC(=O)[C@H](CCC(=O)NCCCC[C@@H](C(N)=O)NC(=O)[C@H](Cc3csc5ccccc35)NC(=O)[C@H](Cc3ccsc3)NC4=O)NC(=O)[C@H](Cc3ccccc3)NC(=O)[C@H](C)NC(=O)[C@H](CCCCNC(C)C)NC(=O)[C@H](CCC(N)=O)NC(=O)[C@H](CC(=O)O)NC1=O)NC(=O)[C@H](CC1CCCCC1)NC(=O)[C@H](CC(N)=O)NC2=O` (relative stereo) [I-158, Ac-PL3-Asn-Cha-B5-Asp-Gln-iPrLys-Ala-Phe-GlnR*3-PyrS2-3Thi-BztA-Lys*3-NH2]: the IC50 is > 1000 nM.

`CC(=O)N1CCC[C@]12CC=CCCCC1(CCCC=CCCCOC(=O)N3CC[C@@]4(C3)NC(=O)[C@H](CCCCNC(=O)CC[C@@H](C(=O)N[C@@H](C)C(N)=O)NC(=O)[C@H](Cc3csc5ccccc35)NC(=O)[C@H](Cc3ccsc3)NC4=O)NC(=O)[C@H](Cc3ccccc3)NC(=O)[C@H](C)NC(=O)C(C)(C)NC(=O)[C@H](Cc3cccc(C(=O)O)c3)NC(=O)[C@H](CC(=O)O)NC1=O)NC(=O)[C@H](CC(C)(C)C)NC(=O)[C@H]([C@@H](C)O)NC2=O` (relative stereo) [I-161, Ac-PL3-Thr-Npg-B5-Asp-3COOHF-Aib-Ala-Phe-Lys*3-PyrS2-3Thi-BztA-GlnR*3-Ala-NH2] displayed an IC50 of 200 to 750 nM.

For the molecule `CC(=O)N1CCC[C@]12CC=CCCCC1(CCCC=CCCCOC(=O)N3CC[C@@]4(C3)NC(=O)[C@H](CCCCNC(=O)CC[C@@H](C(=O)N[C@@H](C)C(N)=O)NC(=O)[C@H](Cc3csc5ccccc35)NC(=O)[C@H](Cc3ccsc3)NC4=O)NC(=O)[C@H](Cc3ccccc3)NC(=O)[C@H](C)NC(=O)C(C)(C)NC(=O)[C@H](Cc3cccc(C(=O)O)c3)NC(=O)[C@H]([C@@H](C)O)NC1=O)NC(=O)[C@H](CC(C)(C)C)NC(=O)[C@H](CC(=O)O)NC2=O` (relative stereo) [I-167, Ac-PL3-Asp-Npg-B5-Thr-3COOHF-Aib-Ala-Phe-Lys*3-PyrS2-3Thi-BztA-GlnR*3-Ala-NH2], the IC50 is > 1000 nM.

`CC(=O)N1CCC[C@]12CCCCCCC1(CCCCCCCCOC(=O)N3CC[C@@]4(C3)NC(=O)[C@H](CCCCNC(=O)CC[C@@H](C(=O)N[C@@H](C)C(N)=O)NC(=O)[C@H](Cc3csc5ccccc35)NC(=O)[C@H](Cc3ccsc3)NC4=O)NC(=O)[C@H](Cc3ccccc3)NC(=O)[C@H](C)NC(=O)C(C)(C)NC(=O)[C@H](Cc3cccc(C(=O)O)c3)NC(=O)[C@H](CC(=O)O)NC1=O)NC(=O)[C@H](CC(C)(C)C)NC(=O)[C@H](CO)NC2=O` (relative stereo) [I-172, Ac-PL3-Ser-Npg-B5-Asp-3COOHF-Aib-Ala-Phe-Lys*3-PyrS2-3Thi-BztA-GlnR*3-Ala-NH2] displayed an IC50 of 750 to 1000 nM.

Take `CC(=O)N1CCC[C@]12CCCCCCC1(CCCCCCCCOC(=O)N3CC[C@@]4(C3)NC(=O)[C@H](CCCCNC(=O)CC[C@@H](C(=O)N[C@@H](C)C(N)=O)NC(=O)[C@H](Cc3csc5ccccc35)NC(=O)[C@H](Cc3ccsc3)NC4=O)NC(=O)[C@H](Cc3ccccc3)NC(=O)[C@H](C)NC(=O)C(C)(C)NC(=O)[C@H](Cc3cccc(C(=O)O)c3)NC(=O)[C@H](CC(=O)O)NC1=O)NC(=O)[C@H](CC(C)(C)C)NC(=O)[C@H]([C@@H](C)O)NC2=O` (relative stereo) [I-173, Ac-PL3-Thr-Npg-B5-Asp-3COOHF-Aib-Ala-Phe-Lys*3-PyrS2-3Thi-BztA-GlnR*3-Ala-NH2]: the IC50 was > 1000 nM.

Take `CC(=O)N1CCC[C@]12CCCCCCC1(CCCCCCCCOC(=O)N3CC[C@@]4(C3)NC(=O)[C@H](CCCCNC(=O)CC[C@@H](C(=O)N[C@@H](C)C(N)=O)NC(=O)[C@H](Cc3csc5ccccc35)NC(=O)[C@H](Cc3ccsc3)NC4=O)NC(=O)[C@H](Cc3ccccc3)NC(=O)[C@H](C)NC(=O)C(C)(C)NC(=O)[C@H](Cc3cccc(C(=O)O)c3)NC(=O)[C@H](CC(=O)O)NC1=O)NC(=O)[C@H](CC(C)(C)C)NC(=O)[C@H](CCO)NC2=O` (relative stereo) [I-174, Ac-PL3-Hse-Npg-B5-Asp-3COOHF-Aib-Ala-Phe-Lys*3-PyrS2-3Thi-BztA-GlnR*3-Ala-NH2]: the IC50 is > 1000 nM.

On to `CC(=O)N1CCC[C@]12CCCCCCC1(CCCCCCCCOC(=O)N3CC[C@@]4(C3)NC(=O)[C@H](CCCCNC(=O)CC[C@@H](C(=O)N[C@@H](C)C(N)=O)NC(=O)[C@H](Cc3csc5ccccc35)NC(=O)[C@H](Cc3ccsc3)NC4=O)NC(=O)[C@H](Cc3ccccc3)NC(=O)[C@H](C)NC(=O)C(C)(C)NC(=O)[C@H](Cc3cccc(C(=O)O)c3)NC(=O)[C@H](CC(=O)O)NC1=O)NC(=O)[C@H](CC(C)(C)C)NC(=O)[C@H]([C@H](C)O)NC2=O` (relative stereo) [I-175, Ac-PL3-aThr-Npg-B5-Asp-3COOHF-Aib-Ala-Phe-Lys*3-PyrS2-3Thi-BztA-GlnR*3-Ala-NH2], for which the IC50 is > 1000 nM.

Consider `CNC(=O)C[C@@H]1NC(=O)[C@]2(CCCCCCC3(CCCCCCCCOC(=O)N4CC[C@@]5(C4)NC(=O)[C@H](CCCCNC(=O)CC[C@@H](C(=O)N[C@@H](C)C(N)=O)NC(=O)[C@H](Cc4csc6ccccc46)NC(=O)[C@H](Cc4ccsc4)NC5=O)NC(=O)[C@H](Cc4ccccc4)NC(=O)[C@H](C)NC(=O)C(C)(C)NC(=O)[C@H](Cc4cccc(C(=O)O)c4)NC(=O)[C@H](CC(=O)O)NC3=O)NC(=O)[C@H](CC(C)(C)C)NC1=O)CCCN2C(C)=O` (relative stereo) [I-176, Ac-PL3-MeAsn-Npg-B5-Asp-3COOHF-Aib-Ala-Phe-Lys*3-PyrS2-3Thi-BztA-GlnR*3-Ala-NH2], for which the IC50 was > 1000 nM.

On to `CC(=O)N1CCC[C@]12CCCCCCC1(CCCCCCCCOC(=O)N3CC[C@@]4(C3)NC(=O)[C@H](CCCCNC(=O)CC[C@@H](C(=O)N[C@@H](C)C(N)=O)NC(=O)[C@H](Cc3csc5ccccc35)NC(=O)[C@H](Cc3ccsc3)NC4=O)NC(=O)[C@H](Cc3ccccc3)NC(=O)[C@H](C)NC(=O)C(C)(C)NC(=O)[C@H](Cc3cccc(C(=O)O)c3)NC(=O)[C@H](CO)NC1=O)NC(=O)[C@H](CC(C)(C)C)NC(=O)[C@H](CC(=O)O)NC2=O` (relative stereo) [I-178, Ac-PL3-Asp-Npg-B5-Ser-3COOHF-Aib-Ala-Phe-Lys*3-PyrS2-3Thi-BztA-GlnR*3-Ala-NH2], for which the IC50 is > 1000 nM.

Take `CC(=O)N1CCC[C@]12CCCCCCC1(CCCCCCCCOC(=O)N3CC[C@@]4(C3)NC(=O)[C@H](CCCCNC(=O)CC[C@@H](C(=O)N[C@@H](C)C(N)=O)NC(=O)[C@H](Cc3csc5ccccc35)NC(=O)[C@H](Cc3ccsc3)NC4=O)NC(=O)[C@H](Cc3ccccc3)NC(=O)[C@H](C)NC(=O)C(C)(C)NC(=O)[C@H](Cc3cccc(C(=O)O)c3)NC(=O)[C@H]([C@@H](C)O)NC1=O)NC(=O)[C@H](CC(C)(C)C)NC(=O)[C@H](CC(=O)O)NC2=O` (relative stereo) [I-179, Ac-PL3-Asp-Npg-B5-Thr-3COOHF-Aib-Ala-Phe-Lys*3-PyrS2-3Thi-BztA-GlnR*3-Ala-NH2]: the IC50 was > 1000 nM.

For the molecule `CC(=O)N1CCC[C@]12CCCCCCC1(CCCCCCCCOC(=O)N3CC[C@@]4(C3)NC(=O)[C@H](CCCCNC(=O)CC[C@@H](C(=O)N[C@@H](C)C(N)=O)NC(=O)[C@H](Cc3csc5ccccc35)NC(=O)[C@H](Cc3ccsc3)NC4=O)NC(=O)[C@H](Cc3ccccc3)NC(=O)[C@H](C)NC(=O)C(C)(C)NC(=O)[C@H](Cc3cccc(C(=O)O)c3)NC(=O)[C@H](CCO)NC1=O)NC(=O)[C@H](CC(C)(C)C)NC(=O)[C@H](CC(=O)O)NC2=O` (relative stereo) [I-180, Ac-PL3-Asp-Npg-B5-Hse-3COOHF-Aib-Ala-Phe-Lys*3-PyrS2-3Thi-BztA-GlnR*3-Ala-NH2], the IC50 is > 1000 nM.

For `CC(=O)N1CCC[C@]12CCCCCCC1(CCCCCCCCOC(=O)N3CC[C@@]4(C3)NC(=O)[C@H](CCCCNC(=O)CC[C@@H](C(=O)N[C@@H](C)C(N)=O)NC(=O)[C@H](Cc3csc5ccccc35)NC(=O)[C@H](Cc3ccsc3)NC4=O)NC(=O)[C@H](Cc3ccccc3)NC(=O)[C@H](C)NC(=O)C(C)(C)NC(=O)[C@H](Cc3cccc(C(=O)O)c3)NC(=O)[C@H]([C@H](C)O)NC1=O)NC(=O)[C@H](CC(C)(C)C)NC(=O)[C@H](CC(=O)O)NC2=O` (relative stereo) [I-181, Ac-PL3-Asp-Npg-B5-aThr-3COOHF-Aib-Ala-Phe-Lys*3-PyrS2-3Thi-BztA-GlnR*3-Ala-NH2], the IC50 was > 1000 nM.

As for `CNC(=O)C[C@@H]1NC(=O)C2(CCCCCCCCOC(=O)N3CC[C@@]4(C3)NC(=O)[C@H](CCCCNC(=O)CC[C@@H](C(=O)N[C@@H](C)C(N)=O)NC(=O)[C@H](Cc3csc5ccccc35)NC(=O)[C@H](Cc3ccsc3)NC4=O)NC(=O)[C@H](Cc3ccccc3)NC(=O)[C@H](C)NC(=O)C(C)(C)NC(=O)[C@H](Cc3cccc(C(=O)O)c3)NC1=O)CCCCCC[C@]1(CCCN1C(C)=O)C(=O)N[C@@H](CC(=O)O)C(=O)N[C@@H](CC(C)(C)C)C(=O)N2` (relative stereo) [I-182, Ac-PL3-Asp-Npg-B5-MeAsn-3COOHF-Aib-Ala-Phe-Lys*3-PyrS2-3Thi-BztA-GlnR*3-Ala-NH2], the concentration for half-maximal inhibition (IC50) was > 1000 nM.

In the case of `CC(=O)N1CCC[C@]12CC=CCCCC1(CCCC=CCCCOC(=O)N3CC[C@@]4(C3)NC(=O)[C@H](CCCCNC(=O)CCC[C@@H](C(=O)N[C@@H](C)C(N)=O)NC(=O)[C@H](Cc3csc5ccccc35)NC(=O)[C@H](Cc3ccccc3C(F)(F)F)NC4=O)NC(=O)[C@H](Cc3ccccc3)NC(=O)[C@H](C)NC(=O)[C@H](C)NC(=O)[C@H](Cc3cccc(C(=O)O)c3)NC(=O)[C@H](CC(=O)O)NC1=O)NC(=O)[C@H](CC(C)(C)C)NC(=O)[C@H](CC(=O)O)NC2=O` (relative stereo) [I-184, Ac-PL3-Asp-Npg-B5-Asp-3COOHF-Ala-Ala-Phe-Lys*3-PyrS2-2F3MeF-BztA-hGlnR*3-Ala-NH2], the IC50 is < 50 nM.

Consider `CC(=O)N1CCC[C@]12CC=CCCCC1(CCCC=CCCCOC(=O)N3CC[C@@]4(C3)NC(=O)[C@H](CCCC(=O)NCCCC[C@@H](C(=O)N[C@@H](C)C(N)=O)NC(=O)[C@H](Cc3csc5ccccc35)NC(=O)[C@H](Cc3ccsc3)NC4=O)NC(=O)[C@H](Cc3ccccc3)NC(=O)[C@H](C)NC(=O)[C@H](C)NC(=O)[C@H](Cc3cccc(C(=O)O)c3)NC(=O)[C@H](CC(=O)O)NC1=O)NC(=O)[C@H](CC(C)(C)C)NC(=O)[C@H](CC(=O)O)NC2=O` (relative stereo) [I-185, Ac-PL3-Asp-Npg-B5-Asp-3COOHF-Ala-Ala-Phe-hGlnR*3-PyrS2-3Thi-BztA-Lys*3-Ala-NH2], for which the IC50 was < 50 nM.
